{"sequences": {"note": "Sequences of proteins named here, by UniProt entry; tags and fusion partners are left off.", "UniProt P16066, whole entry": "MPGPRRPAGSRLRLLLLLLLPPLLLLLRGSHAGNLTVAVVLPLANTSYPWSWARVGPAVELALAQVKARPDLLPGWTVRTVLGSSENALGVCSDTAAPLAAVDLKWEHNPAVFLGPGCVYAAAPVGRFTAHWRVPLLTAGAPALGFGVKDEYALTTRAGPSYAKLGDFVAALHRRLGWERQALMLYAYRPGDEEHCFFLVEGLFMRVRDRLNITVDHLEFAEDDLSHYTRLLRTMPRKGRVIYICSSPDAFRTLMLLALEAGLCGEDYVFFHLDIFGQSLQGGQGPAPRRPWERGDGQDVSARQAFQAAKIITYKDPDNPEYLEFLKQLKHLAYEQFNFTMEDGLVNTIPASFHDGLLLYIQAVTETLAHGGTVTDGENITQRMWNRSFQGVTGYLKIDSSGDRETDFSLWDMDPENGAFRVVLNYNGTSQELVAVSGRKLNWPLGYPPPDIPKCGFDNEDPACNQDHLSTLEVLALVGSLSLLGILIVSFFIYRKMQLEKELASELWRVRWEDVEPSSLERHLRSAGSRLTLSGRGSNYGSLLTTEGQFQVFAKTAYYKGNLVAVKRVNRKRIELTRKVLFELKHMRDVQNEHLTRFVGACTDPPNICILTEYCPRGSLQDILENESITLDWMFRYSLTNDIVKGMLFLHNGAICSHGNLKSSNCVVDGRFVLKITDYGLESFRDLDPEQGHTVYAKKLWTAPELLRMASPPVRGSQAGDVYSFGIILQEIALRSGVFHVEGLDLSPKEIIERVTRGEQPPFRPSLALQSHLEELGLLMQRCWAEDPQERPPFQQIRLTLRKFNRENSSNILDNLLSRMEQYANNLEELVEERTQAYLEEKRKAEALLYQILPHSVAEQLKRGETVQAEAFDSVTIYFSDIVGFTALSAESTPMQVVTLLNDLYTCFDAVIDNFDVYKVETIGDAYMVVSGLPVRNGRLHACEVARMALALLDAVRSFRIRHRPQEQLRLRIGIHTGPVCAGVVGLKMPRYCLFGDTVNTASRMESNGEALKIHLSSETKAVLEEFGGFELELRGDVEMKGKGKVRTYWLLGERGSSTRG"}, "source": "PubChem BioAssay AID1671463", "about": "(Sanford-Burnham Center for Chemical Genomics, 2021)", "note": "Only a part is listed here, and it is no random draw. Activity calls are given as the source filed them. No stated cut-off is given here; in the data, active means activation above about 40%; inactive means the rest.", "data": [{"biological_target": "Atrial natriuretic peptide receptor 1 (Homo sapiens) (UniProt P16066)", "experiment": "GC-A stimulated cGMP production enhancers – HEK293 GC-A cells, cGMP TR-FRET, EC30 ANP, primary screen (AID 1671463)", "settings": "at 10 µM, hits give high values, 0% at EC30 ANP, 100% saturating ANP", "values": [{"compound": "CCN1CCC(Nc2cccc(F)c2)CC1", "activation": "inactive: -0.13%"}, {"compound": "COc1ccc(C(c2nnnn2C2CCCCC2)N2CCC(n3c(=O)[nH]c4ccccc43)CC2)cc1", "note": "(stereo not given)", "activation": "inactive: -2.19%"}, {"compound": "CC(C)(C)n1nnnc1C(c1ccnc2ccccc12)N1CCC(n2c(=O)[nH]c3ccccc32)CC1", "note": "(stereo not given)", "activation": "inactive: -7.15%"}, {"compound": "Cc1ccccc1NC1(C#N)CCN(Cc2ccccc2)CC1", "activation": "inactive: 0.46%"}, {"compound": "CN(C)c1ccc(C(=O)NCC2(N3CCCCC3)CCCCC2)cc1", "activation": "inactive: -6.1%"}, {"compound": "Cn1c(=O)[nH]cc(N(CCCl)CCCl)c1=O", "activation": "inactive: 0.15%"}, {"compound": "O=C(NCC1(N2CCCCC2)CCCCC1)c1ccco1", "activation": "inactive: 3.55%"}, {"compound": "CCC(c1nnnn1C1CCCCC1)N1CCC(n2c(=O)[nH]c3ccccc32)CC1", "note": "(stereo not given)", "activation": "inactive: -13.9%"}, {"compound": "COc1cccc(C(c2nnnn2C2CCCCC2)N2CCC(n3c(=O)[nH]c4ccccc43)CC2)c1OC", "note": "(stereo not given)", "activation": "inactive: -5.56%"}, {"compound": "CC(=O)N(c1ccccc1)C1CCNCC1", "activation": "inactive: 1.74%"}, {"compound": "COc1cc(OC)cc(C(=O)NCC2(N3CCCCC3)CCCCC2)c1", "activation": "inactive: 1.38%"}, {"compound": "O=c1[nH]c2ccccc2n1C1CCN(C(c2ccnc3ccccc23)c2nnnn2C2CCCCC2)CC1", "note": "(stereo not given)", "activation": "inactive: -3.21%"}, {"compound": "Fc1ccccc1NC1CCN(Cc2ccccc2)CC1", "activation": "inactive: 0.62%"}, {"compound": "Cc1ccc(C(=O)NCC2(N3CCCCC3)CCCCC2)o1", "activation": "inactive: 1.82%"}, {"compound": "Cc1ccc(NC2(C#N)CCN(Cc3ccccc3)CC2)cc1", "activation": "inactive: -2.23%"}, {"compound": "COc1cccc(C(c2nnnn2C2CCCC2)N2CCC(n3c(=O)[nH]c4ccccc43)CC2)c1OC", "note": "(stereo not given)", "activation": "inactive: -4.78%"}, {"compound": "COc1cc(OC)cc(C(=O)NCC2(N3CCOCC3)CCCCC2)c1", "activation": "inactive: -3.12%"}, {"compound": "COc1cccc(C(=O)N(c2cc(C)cc(C)c2)C2CCN(C(=O)OC(C)(C)C)CC2)c1", "activation": "inactive: 3.1%"}, {"compound": "CCC(CO)(C(=O)OC1CN2CCC1CC2)c1ccccc1", "note": "(stereo not given)", "activation": "inactive: -7.9%"}, {"compound": "CN1CCC(Nc2ccc(Cl)cc2)CC1", "activation": "inactive: -1.54%"}, {"compound": "CN1CCC(Nc2ccc(F)c(Cl)c2)CC1", "activation": "inactive: 5.6%"}, {"compound": "CCOc1ncccc1C(=O)NCC1(N2CCOCC2)CCCCC1", "activation": "inactive: -1.47%"}, {"compound": "O=C(O)C1(Nc2ccccc2)CCN(Cc2ccccc2)CC1", "activation": "inactive: -1.77%"}, {"compound": "NN(c1ccccc1)C1CCN(CCc2ccccc2)CC1", "activation": "inactive: 0.77%"}, {"compound": "CC(C)(C)OC(=O)N1CCC(Nc2ccccc2)CC1", "activation": "inactive: -0.05%"}, {"compound": "O=c1[nH]c2ccccc2n1C1CCN(C(c2cc3ccccc3o2)c2nnnn2C2CCCC2)CC1", "note": "(stereo not given)", "activation": "inactive: 6.91%"}, {"compound": "CCCOc1ccc(C(=O)NCC2(N(C)C)CCCCC2)cc1", "activation": "inactive: 0.49%"}, {"compound": "CCOC(=O)N1CCC(Nc2ccc(C)cc2)CC1", "activation": "inactive: 0.76%"}, {"compound": "COc1cccc(C(c2nnnn2C(C)(C)C)N2CCC(n3c(=O)[nH]c4ccccc43)CC2)c1OC", "note": "(stereo not given)", "activation": "inactive: -2.05%"}, {"compound": "N/C(=N\\O)c1c(N)no[n+]1[O-]", "activation": "inactive: -0.94%"}, {"compound": "O=c1[nH]c2ccccc2n1C1CCN(C(c2cccs2)c2nnnn2C2CCCC2)CC1", "note": "(stereo not given)", "activation": "inactive: -2.09%"}, {"compound": "O=C(OC1CN2CCC1CC2)C1c2ccccc2C=Cc2ccccc21", "note": "(stereo not given)", "activation": "inactive: -32.5%"}, {"compound": "CCCCn1nnnc1C(c1cccc(OC)c1OC)N1CCC(n2c(=O)[nH]c3ccccc32)CC1", "note": "(stereo not given)", "activation": "inactive: 0.38%"}, {"compound": "COc1cc(C(=O)NCC2(N3CCOCC3)CCCCC2)cc(OC)c1C", "activation": "inactive: -2.29%"}, {"compound": "CCCCn1nnnc1C(c1ccccc1)N1CCC(n2c(=O)[nH]c3ccccc32)CC1", "note": "(stereo not given)", "activation": "inactive: 3.94%"}, {"compound": "O=C(NCC1(N2CCOCC2)CCCCC1)c1cc(Br)ccc1Cl", "activation": "inactive: -5.59%"}, {"compound": "NC(=O)C1(Nc2ccccc2)CCN(Cc2ccccc2)CC1", "activation": "inactive: -4.38%"}, {"compound": "O=c1[nH]c2ccccc2n1C1CCN(C(c2cccs2)c2nnnn2C2CCCCC2)CC1", "note": "(stereo not given)", "activation": "inactive: -2.52%"}, {"compound": "O=c1[nH]c2ccccc2n1C1CCN(C(c2ccnc3ccccc23)c2nnnn2C2CCCC2)CC1", "note": "(stereo not given)", "activation": "inactive: -6.24%"}, {"compound": "COc1ccc(C(=O)NCC2(N3CCOCC3)CCCCC2)cc1OC", "activation": "inactive: 1.21%"}, {"compound": "CN(C)C1(CNC(=O)c2cccc(C#N)c2)CCCCC1", "activation": "inactive: -4.21%"}, {"compound": "Cc1cc(N(CCCl)CCCl)ccc1C=O", "activation": "inactive: 3.25%"}, {"compound": "O=c1[nH]c2ccccc2n1C1CCN(C(c2ccccc2)c2nnnn2C2CCCC2)CC1", "note": "(stereo not given)", "activation": "inactive: -5.45%"}, {"compound": "CCCN1CCC(Nc2cc(OC)cc(OC)c2)CC1", "activation": "inactive: 2.78%"}, {"compound": "C/C(N)=N\\P(=O)(Oc1ccccc1)Oc1ccccc1", "activation": "inactive: -0.32%"}, {"compound": "c1ccc(CN2CCC(Nc3ccccc3)CC2)cc1", "activation": "inactive: -0.1%"}, {"compound": "CC(C)(C)n1nnnc1C(c1cccc2ccccc12)N1CCC(n2c(=O)[nH]c3ccccc32)CC1", "note": "(stereo not given)", "activation": "inactive: -3.37%"}, {"compound": "N#Cc1ccc(C(=O)NCC2(N3CCCCC3)CCCCC2)cc1", "activation": "inactive: 0.03%"}, {"compound": "CC(C)(C)OC(=O)N1CCC(N(C(=O)c2ccccc2)c2ccc(Cl)cc2)CC1", "activation": "inactive: -6.3%"}, {"compound": "O=C(NCC1(N2CCCCC2)CCCCC1)c1cccc(C(F)(F)F)c1", "activation": "inactive: 6.13%"}, {"compound": "COc1cc(C(=O)NCC2(N3CCCCC3)CCCCC2)ccc1OC(F)F", "activation": "inactive: 1.22%"}, {"compound": "O=C(NCC1(N2CCOCC2)CCCCC1)c1cc(=O)[nH]c2ccccc12", "activation": "inactive: 0.46%"}, {"compound": "CN1CCN(CCOC(=O)C(O)(c2ccccc2)c2ccccc2)CC1", "activation": "inactive: -0.61%"}, {"compound": "CC(C)c1ccc(C(=O)NCC2(N3CCOCC3)CCCCC2)cc1", "activation": "inactive: 0.54%"}, {"compound": "COc1ccc(NC2CCN(C(=O)OC(C)(C)C)CC2)cc1", "activation": "inactive: 3.69%"}, {"compound": "CCCCn1nnnc1C(c1cccc2ccccc12)N1CCC(n2c(=O)[nH]c3ccccc32)CC1", "note": "(stereo not given)", "activation": "inactive: -4.62%"}, {"compound": "O=C(NCC1(N2CCCCC2)CCCCC1)c1ccc(OC(F)F)cc1", "activation": "inactive: 1.46%"}, {"compound": "CC(C)(C)n1nnnc1C(c1ccccc1OC(F)(F)F)N1CCC(n2c(=O)[nH]c3ccccc32)CC1", "note": "(stereo not given)", "activation": "inactive: -0.78%"}, {"compound": "O=c1[nH]c2ccccc2n1C1CCN(C(c2ccccc2OC(F)(F)F)c2nnnn2C2CCCC2)CC1", "note": "(stereo not given)", "activation": "inactive: -5.15%"}, {"compound": "N#CC1(Nc2ccccc2)CCN(CCc2ccccc2)CC1", "activation": "inactive: 1.34%"}]}]}
